Reference: paper PMC7341468 (BMC Pharmacology & Toxicology, 2020)
Read-outs that look alike come from different tables or passages of the source.

Tests used:
[1] = cited from earlier work
Description: Traditionally, a Cmin ≥ 10 μg/mL is considered appropriate for MRSA infections.

serum albumin = details: cited from earlier work

teicoplanin
Patients with teicoplanin initial Cmin ≥20 μg/mL (with factor: Age (> 65 years), 162/318 patients): 162/318 (50.9%) | Patients with teicoplanin initial Cmin ≥20 μg/mL (with factor: Anticancer therapy, 26/47 patients): 26/47 (55.3%) | Patients with teicoplanin initial Cmin ≥20 μg/mL (with factor: Body mass index ≥25, 47/74 patients): 47/74 (63.5%) | Patients with teicoplanin initial Cmin ≥20 μg/mL (with factor: Body mass index< 18.5, 59/124 patients): 59/124 (47.6%) | Patients with teicoplanin initial Cmin ≥20 μg/mL (with factor: Chronic renal failure, 47/116 patients): 47/116 (40.5%) | Patients with teicoplanin initial Cmin ≥20 μg/mL (with factor: Chronic respiratory disease, 14/27 patients): 14/27 (51.9%) | Patients with teicoplanin initial Cmin ≥20 μg/mL (with factor: Collagen disease, 25/53 patients): 25/53 (47.2%) | Patients with teicoplanin initial Cmin ≥20 μg/mL (with factor: Complicated MRSA infections, 54/99 patients): 54/99 (54.5%) | Patients with teicoplanin initial Cmin ≥20 μg/mL (with factor: Diabetes mellitus, 58/112 patients): 58/112 (51.8%) | Patients with teicoplanin initial Cmin ≥20 μg/mL (with factor: Heart disease, 111/208 patients): 111/208 (53.4%) | Patients with teicoplanin initial Cmin ≥20 μg/mL (with factor: Immunosuppressive therapy, 18/28 patients): 18/28 (64.3%) | Patients with teicoplanin initial Cmin ≥20 μg/mL (with factor: Inflammatory bowel disease, 44/89 patients): 44/89 (49.4%) | Patients with teicoplanin initial Cmin ≥20 μg/mL (with factor: Intensive care unit stay (> 3 days), 34/98 patients): 34/98 (34.7%) | Patients with teicoplanin initial Cmin ≥20 μg/mL (with factor: Liver cirrhosis/chronic hepatic dysfunction, 34/72 patients): 34/72 (47.2%) | Patients with teicoplanin initial Cmin ≥20 μg/mL (with factor: MRSA infections, 72/139 patients): 72/139 (51.8%) | Patients with teicoplanin initial Cmin ≥20 μg/mL (with factor: Malignant tumor, 99/204 patients): 99/204 (48.5%) | Patients with teicoplanin initial Cmin ≥20 μg/mL (with factor: Serum albumin < 2.5 g/dL (median), 79/217 patients): 79/217 (36.4%) | Patients with teicoplanin initial Cmin ≥20 μg/mL (with factor: Sex (male), 161/318 patients): 161/318 (50.6%) | Patients with teicoplanin initial Cmin ≥20 μg/mL (with factor: Steroid use, 42/85 patients): 42/85 (49.4%) | Patients with teicoplanin initial Cmin ≥20 μg/mL (with factor: Surgery within 28 days, 68/158 patients): 68/158 (43.0%) | Patients with teicoplanin initial Cmin ≥20 μg/mL (with factor: Total parenteral nutrition, 45/102 patients): 45/102 (44.1%) | Patients with teicoplanin initial Cmin ≥20 μg/mL (with factor: Transplantation, 6/8 patients): 6/8 (75.0%) | Patients with teicoplanin initial Cmin ≥20 μg/mL (with factor: Ventilator use, 37/90 patients): 37/90 (41.1%) | Patients with teicoplanin initial Cmin ≥20 μg/mL (with factor: eGFR≥60 mL/min/1.73 m^2, 164/293 patients): 164/293 (56.0%) | Patients with teicoplanin initial Cmin ≥20 μg/mL (without factor: APACHE II score ≥ 15, 213/382 patients): 213/382 (55.8%) | Patients with teicoplanin initial Cmin ≥20 μg/mL (without factor: Age (> 65 years), 105/194 patients): 105/194 (54.1%) | Patients with teicoplanin initial Cmin ≥20 μg/mL (without factor: Anticancer therapy, 241/465 patients): 241/465 (51.8%) | Patients with teicoplanin initial Cmin ≥20 μg/mL (without factor: Body mass index ≥25, 220/438 patients): 220/438 (50.2%) | Patients with teicoplanin initial Cmin ≥20 μg/mL (without factor: Body mass index< 18.5, 208/388 patients): 208/388 (53.6%) | Patients with teicoplanin initial Cmin ≥20 μg/mL (without factor: Chronic renal failure, 220/396 patients): 220/396 (55.6%) | Patients with teicoplanin initial Cmin ≥20 μg/mL (without factor: Chronic respiratory disease, 253/485 patients): 253/485 (52.2%) | Patients with teicoplanin initial Cmin ≥20 μg/mL (without factor: Collagen disease, 242/459 patients): 242/459 (52.7%) | Patients with teicoplanin initial Cmin ≥20 μg/mL (without factor: Complicated MRSA infections, 213/413 patients): 213/413 (51.6%) | Patients with teicoplanin initial Cmin ≥20 μg/mL (without factor: Diabetes mellitus, 209/400 patients): 209/400 (52.3%) | Patients with teicoplanin initial Cmin ≥20 μg/mL (without factor: Enhanced high loading dose regimen (conventional regimen), 150/363 patients): 150/363 (41.3%) | Patients with teicoplanin initial Cmin ≥20 μg/mL (without factor: Heart disease, 156/304 patients): 156/304 (51.3%) | Patients with teicoplanin initial Cmin ≥20 μg/mL (without factor: Immunosuppressive therapy, 249/484 patients): 249/484 (51.4%) | Patients with teicoplanin initial Cmin ≥20 μg/mL (without factor: Inflammatory bowel disease, 223/423 patients): 223/423 (52.7%) | Patients with teicoplanin initial Cmin ≥20 μg/mL (without factor: Intensive care unit stay (> 3 days), 233/414 patients): 233/414 (56.3%) | Patients with teicoplanin initial Cmin ≥20 μg/mL (without factor: Liver cirrhosis/chronic hepatic dysfunction, 233/440 patients): 233/440 (53.0%) | Patients with teicoplanin initial Cmin ≥20 μg/mL (without factor: MRSA infections, 195/373 patients): 195/373 (52.3%) | Patients with teicoplanin initial Cmin ≥20 μg/mL (without factor: Malignant tumor, 168/308 patients): 168/308 (54.5%) | Patients with teicoplanin initial Cmin ≥20 μg/mL (without factor: Serum albumin < 2.5 g/dL (median), 188/295 patients): 188/295 (63.7%) | Patients with teicoplanin initial Cmin ≥20 μg/mL (without factor: Sex (male), 106/194 patients): 106/194 (54.6%) | Patients with teicoplanin initial Cmin ≥20 μg/mL (without factor: Steroid use, 225/427 patients): 225/427 (52.7%) | Patients with teicoplanin initial Cmin ≥20 μg/mL (without factor: Surgery within 28 days, 199/354 patients): 199/354 (56.2%) | Patients with teicoplanin initial Cmin ≥20 μg/mL (without factor: Total parenteral nutrition, 222/410 patients): 222/410 (54.1%) | Patients with teicoplanin initial Cmin ≥20 μg/mL (without factor: Transplantation, 261/504 patients): 261/504 (51.8%) | Patients with teicoplanin initial Cmin ≥20 μg/mL (without factor: Ventilator use, 230/422 patients): 230/422 (54.5%) | Patients with teicoplanin initial Cmin ≥20 μg/mL (without factor: eGFR≥60 mL/min/1.73 m^2, 103/219 patients): 103/219 (47.0%) | Patients in whom a Cmin 15–30 μg/mL was obtained ([1]; 600 mg at 12-h intervals for five doses (total dose 3000 mg), mean body weight approximately 50 kg): 68% | Mean Cmin ([1]; 600 mg at 12-h intervals for five doses (total dose 3000 mg)): 20000 ng/mL | Patients in whom target Cmin ≥ 20 μg/mL was obtained ([1]; 600 mg at 12-h intervals for five doses, post-hoc analysis): less than half of the patients | Mean Cmin on days 3–7 in successful cases ([1]; patients with haematological malignancy, ref 11 (Byrne et al.)): 19600 ng/mL | Teicoplanin bound to serum albumin (serum albumin): Approximately 90%
